For 54 molecules, inhibition of corepressor binding results are on record in PubChem BioAssay AID602229 (The Scripps Research Institute Molecular Screening Center, 2012).

By UniProt entry, the sequences of proteins in these tests, tags left out.
UniProt Q9Y5X4, whole entry: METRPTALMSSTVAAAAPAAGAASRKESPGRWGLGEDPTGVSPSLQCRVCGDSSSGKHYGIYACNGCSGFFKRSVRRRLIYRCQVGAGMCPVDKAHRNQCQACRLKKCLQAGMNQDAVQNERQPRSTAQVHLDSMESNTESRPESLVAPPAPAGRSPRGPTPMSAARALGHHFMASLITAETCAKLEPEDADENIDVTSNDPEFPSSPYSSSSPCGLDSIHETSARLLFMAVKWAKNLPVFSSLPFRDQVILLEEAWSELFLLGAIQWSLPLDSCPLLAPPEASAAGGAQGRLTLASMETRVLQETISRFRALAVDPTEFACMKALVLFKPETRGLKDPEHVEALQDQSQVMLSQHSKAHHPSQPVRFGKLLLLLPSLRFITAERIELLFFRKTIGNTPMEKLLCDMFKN

Only a part is listed here, and it is no random draw. Active and inactive are the calls of the source.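 How the source made its calls: active means inhibition above the mean of all tested compounds plus 3 SD (cut at about 70% in these data); inactive means the rest.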

In the assay the target is Photoreceptor-specific nuclear receptor (Homo sapiens) (UniProt Q9Y5X4). Briefly: NR2E3 agonists in two-hybrid cells, primary screen, cell-based, luminescence, CHO-S, Gal4-NCOR/VP16-NR2E3 (AID 602229).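 Further: 0% = DMSO with NR2E3 transfected cells and 100% = cells lacking NR2E3 construct; higher means lower luciferase signal from less NR2E3 corepressor binding.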 The following applies: luciferase, at 3.98 µM, hits give high values.
`O=C(NCC1(N2CCCCC2)CCCCC1)c1ccco1`: the inhibition of corepressor binding is inactive: 15.8%. `Cn1c(=O)[nH]cc(N(CCCl)CCCl)c1=O`: the inhibition of corepressor binding was inactive: -16.7%. As to `CN(C)c1ccc(C(=O)NCC2(N3CCCCC3)CCCCC2)cc1`, the inhibition of corepressor binding was inactive: -6.69%. As for `Cc1ccccc1NC1(C#N)CCN(Cc2ccccc2)CC1`, the figure is inactive: -26%; as for `CC(C)(C)n1nnnc1C(c1ccnc2ccccc12)N1CCC(n2c(=O)[nH]c3ccccc32)CC1` (centres undefined), inactive: 24.7%; as for `CCN1CCC(Nc2cccc(F)c2)CC1`, inactive: 13.1%. As for `COc1ccc(C(c2nnnn2C2CCCCC2)N2CCC(n3c(=O)[nH]c4ccccc43)CC2)cc1` (centres undefined), the figure is inactive: -6.8%.

As for `Cc1ccc(C(=O)NCC2(N3CCCCC3)CCCCC2)o1`, the inhibition of corepressor binding was inactive: -3.82%. Take `Fc1ccccc1NC1CCN(Cc2ccccc2)CC1`: the inhibition of corepressor binding is inactive: -16.9%. Consider `Cc1ccc(NC2(C#N)CCN(Cc3ccccc3)CC2)cc1`, for which the inhibition of corepressor binding is inactive: -1.06%. For `CC(=O)N(c1ccccc1)C1CCNCC1`, the inhibition of corepressor binding is inactive: -11.2%. As for `COc1cccc(C(c2nnnn2C2CCCCC2)N2CCC(n3c(=O)[nH]c4ccccc43)CC2)c1OC` (centres undefined), the figure is inactive: 6.18%; as for `CCC(c1nnnn1C1CCCCC1)N1CCC(n2c(=O)[nH]c3ccccc32)CC1` (centres undefined), inactive: -2.45%; as for `O=c1[nH]c2ccccc2n1C1CCN(C(c2ccnc3ccccc23)c2nnnn2C2CCCCC2)CC1` (centres undefined), inactive: -5.05%. As to `COc1cc(OC)cc(C(=O)NCC2(N3CCCCC3)CCCCC2)c1`, the inhibition of corepressor binding is inactive: -23.9%. In the case of `CN1CCC(Nc2ccc(Cl)cc2)CC1`, the inhibition of corepressor binding is inactive: 4.89%. As for `COc1cccc(C(=O)N(c2cc(C)cc(C)c2)C2CCN(C(=O)OC(C)(C)C)CC2)c1`, the inhibition of corepressor binding is inactive: -12.7%. As for `COc1cccc(C(c2nnnn2C2CCCC2)N2CCC(n3c(=O)[nH]c4ccccc43)CC2)c1OC` (centres undefined), the figure is inactive: -15.2%; as for `COc1cc(OC)cc(C(=O)NCC2(N3CCOCC3)CCCCC2)c1`, inactive: -6.27%. As for `CCC(CO)(C(=O)OC1CN2CCC1CC2)c1ccccc1` (centres undefined), the inhibition of corepressor binding was inactive: -6.88%. Turning to `CC(C)(C)OC(=O)N1CCC(Nc2ccccc2)CC1`, the inhibition of corepressor binding is inactive: 16.4%. With `NN(c1ccccc1)C1CCN(CCc2ccccc2)CC1`, the inhibition of corepressor binding was inactive: -20.8%. Next, `O=C(O)C1(Nc2ccccc2)CCN(Cc2ccccc2)CC1`: inactive: 10%. As for `CCCOc1ccc(C(=O)NCC2(N(C)C)CCCCC2)cc1`, the figure is inactive: -17.3%; as for `O=c1[nH]c2ccccc2n1C1CCN(C(c2cc3ccccc3o2)c2nnnn2C2CCCC2)CC1` (centres undefined), inactive: 7.62%; as for `CCOc1ncccc1C(=O)NCC1(N2CCOCC2)CCCCC1`, inactive: -17.4%. Next, `CN1CCC(Nc2ccc(F)c(Cl)c2)CC1`: inactive: 8.54%; `O=C(OC1CN2CCC1CC2)C1c2ccccc2C=Cc2ccccc21` (centres undefined): inactive: 8.74%. For `O=c1[nH]c2ccccc2n1C1CCN(C(c2cccs2)c2nnnn2C2CCCC2)CC1` (centres undefined), the inhibition of corepressor binding is inactive: -12.2%. Consider `CCCCn1nnnc1C(c1cccc(OC)c1OC)N1CCC(n2c(=O)[nH]c3ccccc32)CC1` (centres undefined), for which the inhibition of corepressor binding is inactive: 15.5%. Next, `COc1cccc(C(c2nnnn2C(C)(C)C)N2CCC(n3c(=O)[nH]c4ccccc43)CC2)c1OC` (centres undefined): inactive: 22.2%; `CCOC(=O)N1CCC(Nc2ccc(C)cc2)CC1`: inactive: -2.89%; `N/C(=N\O)c1c(N)no[n+]1[O-]`: inactive: -48.8%. As for `O=c1[nH]c2ccccc2n1C1CCN(C(c2cccs2)c2nnnn2C2CCCCC2)CC1` (centres undefined), the inhibition of corepressor binding is inactive: 12.2%.

Regarding `COc1ccc(C(=O)NCC2(N3CCOCC3)CCCCC2)cc1OC`, the inhibition of corepressor binding was inactive: 17.1%. As for `O=c1[nH]c2ccccc2n1C1CCN(C(c2ccnc3ccccc23)c2nnnn2C2CCCC2)CC1` (centres undefined), the figure is inactive: 8.4%; as for `CCCCn1nnnc1C(c1ccccc1)N1CCC(n2c(=O)[nH]c3ccccc32)CC1` (centres undefined), inactive: -4.04%; as for `COc1cc(C(=O)NCC2(N3CCOCC3)CCCCC2)cc(OC)c1C`, inactive: -0.1%. Next, `O=C(NCC1(N2CCOCC2)CCCCC1)c1cc(Br)ccc1Cl`: inactive: 13.4%. As for `CC(C)(C)n1nnnc1C(c1cccc2ccccc12)N1CCC(n2c(=O)[nH]c3ccccc32)CC1` (centres undefined), the figure is inactive: 38.6%; as for `CN(C)C1(CNC(=O)c2cccc(C#N)c2)CCCCC1`, inactive: -10.8%. Consider `c1ccc(CN2CCC(Nc3ccccc3)CC2)cc1`, for which the inhibition of corepressor binding is inactive: -3.1%.

Take `Cc1cc(N(CCCl)CCCl)ccc1C=O`: the inhibition of corepressor binding is inactive: 4.03%. Regarding `CCCN1CCC(Nc2cc(OC)cc(OC)c2)CC1`, the inhibition of corepressor binding is inactive: -11.1%. `O=c1[nH]c2ccccc2n1C1CCN(C(c2ccccc2)c2nnnn2C2CCCC2)CC1` (centres undefined): the inhibition of corepressor binding is inactive: 7.87%. For `N#Cc1ccc(C(=O)NCC2(N3CCCCC3)CCCCC2)cc1`, the inhibition of corepressor binding is inactive: 20.6%. Next, `CC(C)(C)OC(=O)N1CCC(N(C(=O)c2ccccc2)c2ccc(Cl)cc2)CC1`: inactive: 14.9%. `O=C(NCC1(N2CCOCC2)CCCCC1)c1cc(=O)[nH]c2ccccc12`: the inhibition of corepressor binding is inactive: -2.04%. Next, `COc1cc(C(=O)NCC2(N3CCCCC3)CCCCC2)ccc1OC(F)F`: inactive: 30%; `CCCCn1nnnc1C(c1cccc2ccccc12)N1CCC(n2c(=O)[nH]c3ccccc32)CC1` (centres undefined): inactive: 24.6%; `CC(C)c1ccc(C(=O)NCC2(N3CCOCC3)CCCCC2)cc1`: inactive: -19.8%. Next, `COc1ccc(NC2CCN(C(=O)OC(C)(C)C)CC2)cc1`: inactive: 1.67%; `CN1CCN(CCOC(=O)C(O)(c2ccccc2)c2ccccc2)CC1`: inactive: -6.21%. As for `O=C(NCC1(N2CCCCC2)CCCCC1)c1cccc(C(F)(F)F)c1`, the figure is inactive: -27.4%.
